From PubChem BioAssay AID2462 (Broad Institute, 2010)
The list shows a part of the results, in another mix than the full data. Some salts or complexes appear as unconnected parts, following the source record. Activity calls are given as the source filed them.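 The calls were made as follows: active = over half of replicate activation scores above 10%, or exactly half above 10 with the replicate mean above 10; inconclusive = replicate mean below 10 yet half the replicates above 10; inactive = over half of replicates below 10.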

Assay: caspase 3/7 activation in MEF A1-2A-BIM cells, primary screen, A1 inhibitor project, cell-based, luminescence, HTS (AID 2462)
Conditions: Caspase-Glo 3/7 luminescence, 3 h, hits give high values, percent of clofoctol response, vehicle zero, concentration not given here
In the case of `Cc1cccc(C)c1OP(C)(=O)Nc1ccc(SC(F)(F)F)cc1` (stereo unspecified), the caspase activation is reported as inactive: -0.183%.
For `CP(=O)(Nc1ccc(SC(F)(F)F)cc1)Oc1ccc(Cl)cc1` (stereo unspecified), the caspase activation was inactive: 0.871%.
In the case of `O=C(Nc1ccncc1[N+](=O)[O-])c1ccc([N+](=O)[O-])cc1[N+](=O)[O-]`, the caspase activation is reported as inactive: -1.42%.
In the case of `Cc1cc(C)cc(OP(C)(=O)Nc2ccc(SC(F)(F)F)cc2)c1` (stereo unspecified), the caspase activation is reported as inactive: 0.735%.
With `O=C(COc1ccccc1)OC1CN2CCC1CC2` (stereo unspecified) the caspase activation was inactive: 0.43%.
With `CP(=O)(NC(=O)Nc1ccccc1)Oc1ccccc1` (stereo unspecified) the caspase activation was inactive: 0.0866%.
For `CCc1ccc(OP(C)(=O)N2CCN(c3ccc([N+](=O)[O-])cc3)CC2)cc1` (stereo unspecified), the caspase activation was inactive: -0.452%.
With `CP(=O)(Nc1ccc(Cl)cc1)Oc1ccc(F)cc1` (stereo unspecified) the caspase activation was inactive: 0.63%.
In the case of `CCN(/C(=N/P(=O)(N1CCOCC1)N1CCOCC1)N1CCOCC1)c1ccc(OC)cc1`, the caspase activation is reported as inactive: 0.81%.
For `C[N+]1=C2C=CC=CC=C2SC12C([N+](=O)[O-])=CC([N+](=O)[O-])=C[C-]2[N+](=O)[O-]` (stereo unspecified), the caspase activation was inactive: -0.334%.
In the case of `COc1ccccc1OP(C)(=O)Nc1ccccc1Br` (stereo unspecified), the caspase activation is reported as inactive: 0.375%.
With `CC(C)(C)c1ccc(OP(C)(=O)O)cc1` the caspase activation was inactive: -0.797%.
In the case of `Nc1ccc([As](=O)(O)c2ccc(N)cc2)cc1`, the caspase activation is reported as inactive: -0.483%.
For `CC1CCN(C(=O)Oc2c(Cl)cc(Cl)c3cccnc23)CC1`, the caspase activation was inactive: 0.868%.
With `CN(C)C(=O)OCCc1n(C)cc[n+]1C` the caspase activation was inactive: 1.69%.
For `CN(C)C(=O)c1c([N+](=O)[O-])cc([N+](=O)[O-])cc1[N+](=O)[O-]`, the caspase activation was inactive: 0.416%.
With `CC(C)=N/N=C(\N)N[N+](=O)[O-]` the caspase activation was inactive: 0.236%.
In the case of `COc1ccc(OP(C)(=O)Nc2ccc(Br)cc2)cc1` (stereo unspecified), the caspase activation is reported as inactive: 0.35%.
In the case of `COc1ccc(C2=NCC(CBr)S2)cc1` (stereo unspecified), the caspase activation is reported as inactive: 0.0234%.
With `CCN(CC)CC(O)COC(=O)C(O)(c1ccccc1)C1CCCCC1` (stereo unspecified) the caspase activation was inactive: 0.189%.
For `CCc1ccc(OP(C)(=O)Nc2cccnc2)cc1` (stereo unspecified), the caspase activation was inactive: 0.418%.
For `CCc1nc2c(n1)c1c(non1O)c1c2no[n+]1[O-]`, the caspase activation was inactive: -1.19%.
With `O=[N+]([O-])c1cc([N+](=O)[O-])c(CCNc2ccccc2)c([N+](=O)[O-])c1` the caspase activation was inactive: -1.18%.
With `CP(=O)(Oc1ccccc1)N1CCOC1=O` (stereo unspecified) the caspase activation was inactive: 0.795%.
In the case of `Cc1ccc(NP(=O)(Oc2ccccc2)Oc2ccccc2)nc1`, the caspase activation is reported as inactive: -0.726%.
With `O=C(OCCCN1CCCC1)C(O)(c1ccccc1)C1CCCCC1` (stereo unspecified) the caspase activation was inactive: -0.883%.
In the case of `O=[N+]([O-])c1cccc2n[nH]nc12`, the caspase activation is reported as inactive: 0.584%.
In the case of `CC(=O)N1C2C3N(C(C)=O)C1C1N(C(C)=O)C(C(N1C(C)=O)N3C(C)=O)N2C(C)=O`, the caspase activation is reported as inactive: 0.131%.
In the case of `COc1ccccc1OP(C)(=O)Nc1c(C)n(C)n(-c2ccccc2)c1=O` (stereo unspecified), the caspase activation is reported as inactive: 1.39%.
In the case of `O=[N+]([O-])c1ncn(CCn2ncnc2[N+](=O)[O-])n1`, the caspase activation is reported as inactive: 1.66%.
With `CC(C)(C)C(=O)NC(Sc1ccncn1)C(Cl)(Cl)Cl` (stereo unspecified) the caspase activation was inactive: 0.89%.
For `O=C(O)CNc1ccc([As](=O)(O)O)cc1`, the caspase activation was inactive: 0.936%.
With `O=[N+]([O-])c1cccc(NC2=NCC(CBr)S2)c1` (stereo unspecified) the caspase activation was inactive: -0.884%.
For `Nc1ccc2c(ccc3cccnc32)n1.O=[N+]([O-])c1cc([N+](=O)[O-])c(O)c([N+](=O)[O-])c1`, the caspase activation was inactive: 0.0257%.
In the case of `CP(=O)(OC12CC3CC(CC(C3)C1)C2)OC12CC3CC(CC(C3)C1)C2`, the caspase activation is reported as inactive: 0.734%.
In the case of `O=C(Nc1cc([As](=O)(O)O)ccc1O)c1ccccc1`, the caspase activation is reported as inactive: 0.597%.
For `CCOC(=O)c1ccc(NP(C)(=O)Oc2ccc(Cl)cc2)cc1` (stereo unspecified), the caspase activation was inactive: 0.493%.
In the case of `O=[N+]([O-])c1cc([N+](=O)[O-])c(CCN2CCOCC2)c([N+](=O)[O-])c1`, the caspase activation is reported as inactive: 2%.
For `CP(=O)(Nc1ccc(Cl)cc1Cl)Oc1ccccc1` (stereo unspecified), the caspase activation was inactive: 1.01%.
In the case of `CP(=O)(OCCOc1ccccc1)OCCOc1ccccc1`, the caspase activation is reported as inactive: -0.33%.
With `Nc1cccc2ccc([As](=O)(O)O)cc12` the caspase activation was inactive: -0.88%.
In the case of `CCN(N=Nc1nonc1N)c1nonc1N`, the caspase activation is reported as inactive: 0.417%.
In the case of `O=P(Nc1nc2ccc(Cl)cc2s1)(c1ccccc1)c1ccccc1`, the caspase activation is reported as inactive: -0.00653%.
For `Cc1cc(C)cc(OP(C)(=O)Nc2cccc(C(F)(F)F)c2)c1` (stereo unspecified), the caspase activation was inactive: 0.0804%.
With `CC(=O)Nc1ccc([As](=O)(O)O)cc1` the caspase activation was inactive: -0.106%.
In the case of `O=C(O)c1ccccc1[As](=O)(O)O`, the caspase activation is reported as inactive: 0.629%.
In the case of `COc1ccc(OP(C)(=O)Nc2ccccc2Br)cc1` (stereo unspecified), the caspase activation is reported as inactive: 0.324%.
For `COc1ccccc1OP(C)(=O)Nc1ccc(C)c(C)c1` (stereo unspecified), the caspase activation was inactive: 0.551%.
In the case of `Cc1ccc(NP(=O)(Oc2ccccc2F)Oc2ccccc2F)nc1`, the caspase activation is reported as inactive: -0.626%.
For `CN(C(=O)Cc1ccc(Cl)c(Cl)c1)[C@H]1CCCC[C@@H]1N1CCCC1`, the caspase activation was inactive: 0.107%.
In the case of `Cc1cc(SC(NC(=O)c2ccc(F)cc2)C(Cl)(Cl)Cl)ncn1` (stereo unspecified), the caspase activation is reported as inactive: -0.123%.
For `CCOP(=O)(Nc1ccccc1)OCC`, the caspase activation was inactive: -0.562%.
In the case of `O=C(NC(Sc1ccncn1)C(Cl)(Cl)Cl)c1ccccc1` (stereo unspecified), the caspase activation is reported as inactive: -0.722%.
With `Cc1c2non([O-])c-2c(C)[n+](=O)[n+]1[O-]` the caspase activation was inactive: 0.671%.
In the case of `Oc1ccccc1CNc1ccccn1`, the caspase activation is reported as inactive: 0.618%.
For `Cc1c(NP(C)(=O)Oc2ccc(C(C)C)cc2)c(=O)n(-c2ccccc2)n1C` (stereo unspecified), the caspase activation was inactive: -0.0176%.
With `Nc1cc(N)c2nonc2c1[N+](=O)[O-]` the caspase activation was inactive: 0.0629%.
With `CC(C)CC(=O)NC(Sc1ccc(Cl)cc1)C(Cl)(Cl)Cl` (stereo unspecified) the caspase activation was inactive: -0.511%.
For `O=[N+]([O-])c1cc([N+](=O)[O-])c(Nc2ccccn2)c([N+](=O)[O-])c1`, the caspase activation was inactive: 2.28%.
In the case of `CCc1ccc(OP(C)(=O)O)cc1`, the caspase activation is reported as inactive: -0.171%.
In the case of `COc1ccccc1OP(C)(=O)Nc1ccc(C)cc1C` (stereo unspecified), the caspase activation is reported as inactive: -1.22%.
For `CP(=O)(Nc1ccccn1)Oc1ccccc1` (stereo unspecified), the caspase activation was inactive: 1.84%.
With `Cc1ccc(N/C(=N/P(=O)(N2CCOCC2)N2CCOCC2)N2CCOCC2)cc1` the caspase activation was inactive: 0.114%.
With `CN(C(=O)Cc1ccc(Cl)c(Cl)c1)[C@H]1CCCC[C@H]1N1CCCC1` the caspase activation was inactive: 0.436%.
For `COc1ccccc1OP(C)(=O)Nc1ccc(Br)cc1` (stereo unspecified), the caspase activation was inactive: 0.152%.
With `NC(=O)c1cc([N+](=O)[O-])cc([N+](=O)[O-])c1N` the caspase activation was inactive: -0.654%.
For `CN1CCCC(OC(=O)C(c2ccccc2)c2ccccc2)C1` (stereo unspecified), the caspase activation was inactive: 1.27%.
In the case of `Clc1ccc(Cl)c(NC2=NCC(CBr)S2)c1` (stereo unspecified), the caspase activation is reported as inactive: 2.81%.
In the case of `CN(C)CCOC(=O)C(O)(c1ccccc1)C1CCCC1` (stereo unspecified), the caspase activation is reported as inactive: 0.141%.
For `Cc1ccc(OP(=O)(Nc2nccs2)Oc2ccc(C)cc2)cc1`, the caspase activation was inactive: 1.88%.
In the case of `COc1ccccc1OP(=O)(Nc1ccc(C)cn1)Oc1ccccc1OC`, the caspase activation is reported as inactive: -0.501%.
With `COc1ccc(OP(C)(=O)Nc2ccccn2)cc1` (stereo unspecified) the caspase activation was inactive: -0.911%.
In the case of `C[C@H]1OP(=O)(Oc2ccccc2)C[C@@H]2O[C@@H]21` (stereo partly specified), the caspase activation is reported as inactive: -0.537%.
For `C[C@@H]1C=CCP(=O)(Oc2ccccc2)O1` (stereo partly specified), the caspase activation was inactive: -0.0831%.
With `O=C(OCCN1CCN(CCOCc2ccccc2)CC1)C(O)(c1ccccc1)c1ccccc1` the caspase activation was inactive: 0.262%.
For `O=C(OC1CN2CCC1CC2)c1ccc([N+](=O)[O-])cc1` (stereo unspecified), the caspase activation was inactive: 1.44%.
For `CC(=O)c1ccc(N2CC2c2ccncc2)cc1` (stereo unspecified), the caspase activation was inactive: -1.93%.
With `CC(=O)Nc1ccc(Oc2c([N+](=O)[O-])cc([N+](=O)[O-])cc2[N+](=O)[O-])cc1` the caspase activation was inactive: 0.314%.
In the case of `CC(=O)Nc1ccc([As](=O)(O)O)c(O)c1`, the caspase activation is reported as inactive: 0.642%.
In the case of `COc1ccc2c(c1O)-c1c(O)c(OC)cc3c1[C@H](C2)[N+](C)(C)CC3.O=[N+]([O-])c1cc([N+](=O)[O-])c([O-])c([N+](=O)[O-])c1[O-]`, the caspase activation is reported as inactive: 0.928%.
With `CCOc1ccc(C2=NCC(CBr)S2)cc1` (stereo unspecified) the caspase activation was inactive: 2.92%.
For `O=P1(Nc2nc3ccc(Cl)cc3s2)COc2ccccc2O1` (stereo unspecified), the caspase activation was inactive: -3.17%.
With `CC(C)c1ccc(OP(C)(=O)Nc2ccc(SC(F)(F)F)cc2)cc1` (stereo unspecified) the caspase activation was inactive: -0.32%.
For `CC(C)(C)C(=O)NC(Sc1ccccc1)C(Cl)(Cl)Cl` (stereo unspecified), the caspase activation was inactive: 0.51%.
In the case of `CP(=O)(Nc1ccccc1F)Oc1ccccc1` (stereo unspecified), the caspase activation is reported as inactive: 0.419%.
For `CCN(CC)CCCOC(=O)C(O)(c1ccccc1)C1CCCCC1` (stereo unspecified), the caspase activation was inactive: 0.0136%.
With `CCC(=O)N1C2C3N(C(=O)CC)C1C1N(C(=O)CC)C(C(N1C(=O)CC)N3C(=O)CC)N2C(=O)CC` the caspase activation was inactive: -0.365%.
For `O=C(OC1CN2CCC1CC2)c1ccccc1` (stereo unspecified), the caspase activation was inactive: -0.112%.
In the case of `Cc1ccc(OP(=O)(Nc2ccccn2)Oc2ccc(C)cc2)cc1`, the caspase activation is reported as inactive: 0.785%.
With `CC(=O)NC(SC(=S)N(CC(C)C)CC(C)C)C(Cl)(Cl)Cl` (stereo unspecified) the caspase activation was inactive: -0.0818%.
With `COC(=O)c1cc2c(s1)N=C(c1ccccc1)N(C)P2(=O)N1CCOCC1` (stereo unspecified) the caspase activation was inactive: 1%.
For `CCCCCOc1ccc(NP(C)(=O)Oc2ccc(Cl)cc2Cl)cc1` (stereo unspecified), the caspase activation was inactive: -0.307%.
With `O=[N+]([O-])c1cc([N+](=O)[O-])c(OC2CCCCC2O)c([N+](=O)[O-])c1` (stereo unspecified) the caspase activation was inactive: -0.0334%.
With `CN(C)C(=O)Oc1noc2ccccc12` the caspase activation was inactive: -0.05%.
In the case of `CC(NC(=O)COC(=O)C(O)(c1ccccc1)c1ccccc1)c1ccccc1` (stereo unspecified), the caspase activation is reported as inactive: 0.644%.
For `Cc1ccccc1OP(=O)(Nc1ccccn1)Oc1ccccc1C`, the caspase activation was inactive: -0.255%.
